By UniProt entry, the sequences of proteins in these tests, tags left out.
UniProt Q96LB2, whole entry: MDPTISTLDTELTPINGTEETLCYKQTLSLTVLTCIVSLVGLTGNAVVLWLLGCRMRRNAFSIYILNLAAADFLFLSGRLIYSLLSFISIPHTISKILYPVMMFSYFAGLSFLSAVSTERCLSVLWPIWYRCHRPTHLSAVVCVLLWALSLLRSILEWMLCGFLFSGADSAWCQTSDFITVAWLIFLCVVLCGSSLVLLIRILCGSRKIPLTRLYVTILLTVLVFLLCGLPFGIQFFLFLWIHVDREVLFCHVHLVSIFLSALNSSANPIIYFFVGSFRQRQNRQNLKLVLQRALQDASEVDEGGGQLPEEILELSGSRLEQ
UniProt Q96LB1, whole entry: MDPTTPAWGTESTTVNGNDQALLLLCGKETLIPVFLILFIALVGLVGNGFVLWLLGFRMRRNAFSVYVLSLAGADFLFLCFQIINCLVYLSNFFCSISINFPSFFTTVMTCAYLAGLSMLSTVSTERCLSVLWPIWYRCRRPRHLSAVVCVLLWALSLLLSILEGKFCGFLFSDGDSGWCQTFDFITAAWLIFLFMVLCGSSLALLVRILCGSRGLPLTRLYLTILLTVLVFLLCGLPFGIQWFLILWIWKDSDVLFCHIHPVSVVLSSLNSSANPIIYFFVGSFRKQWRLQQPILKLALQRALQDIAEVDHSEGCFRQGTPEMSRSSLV

According to patent publication US20080249081A1, “COMPOUNDS FOR THE TREATMENT OF PAIN AND SCREENING METHODS THEREFOR” (priority 2006, published 2008):

Legend:
human MrgX1 receptor = human MrgX1 receptor (Homo sapiens, UniProt Q96LB2); assay: Receptor Selection and Amplification Technology (R-SAT) functional assay, transfected NIH3T3 cells; conditions: pEC50 = negative log of molar EC50
Method: (§1) The functional receptor assay, Receptor Selection and Amplification Technology (R-SAT), was used to investigate the pharmacological properties of test compounds on MRGX1 or MRGX2 receptors. R-SAT is disclosed in U.S. Pat. Nos. 5,707,798, 5,912,132, and 5,955,281, each of which is incorporated by reference herein in its entirety, including any drawings.
(§2) Briefly, NIH3T3 cells were grown in 96-well tissue culture plates to 70-80% confluence. Cells were transfected for 16-20 h with plasmid DNAs using Polyfect (Qiagen Inc.) and the manufacturer's protocols. R-SATs were generally performed with 4 ng/well of receptor and 20 ng/well of β-galactosidase plasmid DNA. The human MrgX1, simian MrgX1, human MrgX2 and simian MrgX2 receptor genes were amplified by PCR from genomic DNA using oligodeoxynucleotide primers as described in U.S. patent application Ser. No. 11/359,209, which is incorporated by reference herein in its entirety, including any drawings. For large-scale transfections, cells were transfected for 16-20 h, then trypsinized and frozen in DMSO. Frozen cells were later thawed, plated at ˜10,000 cells per well of a 96 half-area well plate that contained test compound. With both methods, cells were then grown in a humidified atmosphere with 5% ambient CO2 for five days. The medium was then removed from the plates and marker gene activity was measured by the addition of the β-galactosidase substrate o-nitrophenyl β-D-galactopyranoside (ONPG, in PBS with 0.5% NP-40). The resulting […] reaction was measured in a spectrophotometric plate reader (Titertek Inc.) at 420 nm. All data were analyzed using the computer program XLFit (IDBSm). Efficacy is defined as the percent maximal activation compared to activation by a control compound (BAM22 in the case of human or simian MRGX1, STIA or Cortistatin-14 in the case of human or simian MRGX2). pEC50 is the negative of log(EC50), where EC50 is the calculated molar concentration of test compound that produces 50% of maximum activation.
(§3) Efficacy is reported relative to the ligands Bam22 for MrgX1 and STIA for MrgX2.

human MrgX2 receptor = human MrgX2 receptor (Homo sapiens, UniProt Q96LB1); assay: as above
Method: as §1, §2, §3

Compound | Human-MrgX1 pEC50 (human MrgX1 receptor) | Human-MrgX2 pEC50 (human MrgX2 receptor)
N=C(N)NCCCC(C(N)=O)n1c(-c2cccc(Oc3ccccc3)c2)nc2cc(C(=O)N3CCOCC3)ccc21 (stereo not drawn) | 5.8 | nr
N=C(N)NCCCC(C(N)=O)n1c(-c2cccc(Oc3ccccc3)c2)nc2cc(C(=O)Nc3ccc4cn[nH]c4c3)ccc21 (stereo not drawn) | 5.6 | nr
N=C(N)NCCC[C@@H](C(N)=O)n1c(-c2cccc(Oc3ccccc3)c2)nc2cc(C(=O)NCc3cccc(C(F)(F)F)c3)ccc21 | 6.4 | nr
